# Assay results published in paper PMC7611940, “A Conformation Selective Mode of Inhibiting SRC Improves Drug Efficacy and Tolerability” (Cancer Research, 2021).
# The chains behind the UniProt entries cited, without tags or fusion partners. Where a name states a change or a piece, a line headed by the entry shows the natural chain unless it says otherwise.
# UniProt Q9UQB9: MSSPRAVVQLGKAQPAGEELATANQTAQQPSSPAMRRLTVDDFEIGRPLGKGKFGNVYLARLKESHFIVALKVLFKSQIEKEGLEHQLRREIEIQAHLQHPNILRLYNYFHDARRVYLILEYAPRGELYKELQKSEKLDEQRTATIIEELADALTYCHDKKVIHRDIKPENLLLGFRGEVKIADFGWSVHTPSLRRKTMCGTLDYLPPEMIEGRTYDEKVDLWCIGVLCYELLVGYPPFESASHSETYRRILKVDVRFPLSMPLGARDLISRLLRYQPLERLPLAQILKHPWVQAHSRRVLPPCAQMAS
# UniProt O14920: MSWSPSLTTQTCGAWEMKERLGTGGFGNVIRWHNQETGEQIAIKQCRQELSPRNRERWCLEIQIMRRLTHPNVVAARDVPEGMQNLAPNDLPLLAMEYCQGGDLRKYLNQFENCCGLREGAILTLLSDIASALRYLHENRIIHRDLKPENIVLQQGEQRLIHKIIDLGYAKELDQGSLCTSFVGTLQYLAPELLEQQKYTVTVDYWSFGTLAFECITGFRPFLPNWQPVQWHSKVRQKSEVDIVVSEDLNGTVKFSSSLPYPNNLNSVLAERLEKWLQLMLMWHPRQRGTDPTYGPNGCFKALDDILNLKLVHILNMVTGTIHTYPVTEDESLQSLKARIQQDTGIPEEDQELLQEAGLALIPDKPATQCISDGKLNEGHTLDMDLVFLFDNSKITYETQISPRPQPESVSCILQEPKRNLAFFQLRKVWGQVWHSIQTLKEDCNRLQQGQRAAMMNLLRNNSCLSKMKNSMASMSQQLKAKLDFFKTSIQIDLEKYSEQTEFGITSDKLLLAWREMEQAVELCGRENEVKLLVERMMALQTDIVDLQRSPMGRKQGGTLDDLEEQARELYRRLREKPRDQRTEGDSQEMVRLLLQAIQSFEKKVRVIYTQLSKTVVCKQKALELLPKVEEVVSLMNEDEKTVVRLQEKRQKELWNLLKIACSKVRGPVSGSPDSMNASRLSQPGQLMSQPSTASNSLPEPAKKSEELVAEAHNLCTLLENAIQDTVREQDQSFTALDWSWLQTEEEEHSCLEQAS
# UniProt P53667: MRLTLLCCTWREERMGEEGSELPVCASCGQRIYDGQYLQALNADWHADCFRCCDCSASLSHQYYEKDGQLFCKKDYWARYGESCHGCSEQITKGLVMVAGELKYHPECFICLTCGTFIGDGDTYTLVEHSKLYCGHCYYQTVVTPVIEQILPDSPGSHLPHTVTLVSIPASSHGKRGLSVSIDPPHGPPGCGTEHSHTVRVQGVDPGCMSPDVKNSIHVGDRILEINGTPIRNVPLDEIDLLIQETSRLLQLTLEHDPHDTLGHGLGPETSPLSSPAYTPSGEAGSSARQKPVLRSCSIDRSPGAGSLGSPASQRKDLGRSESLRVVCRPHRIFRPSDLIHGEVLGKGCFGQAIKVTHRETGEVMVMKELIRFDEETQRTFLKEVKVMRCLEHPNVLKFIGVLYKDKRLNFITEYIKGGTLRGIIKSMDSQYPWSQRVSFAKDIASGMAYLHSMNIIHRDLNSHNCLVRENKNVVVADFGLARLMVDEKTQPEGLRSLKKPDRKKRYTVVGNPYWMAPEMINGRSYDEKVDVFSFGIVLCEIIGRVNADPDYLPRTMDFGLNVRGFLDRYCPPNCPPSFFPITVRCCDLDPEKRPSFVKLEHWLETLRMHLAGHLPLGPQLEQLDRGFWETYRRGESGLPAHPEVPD
# UniProt Q96RG2: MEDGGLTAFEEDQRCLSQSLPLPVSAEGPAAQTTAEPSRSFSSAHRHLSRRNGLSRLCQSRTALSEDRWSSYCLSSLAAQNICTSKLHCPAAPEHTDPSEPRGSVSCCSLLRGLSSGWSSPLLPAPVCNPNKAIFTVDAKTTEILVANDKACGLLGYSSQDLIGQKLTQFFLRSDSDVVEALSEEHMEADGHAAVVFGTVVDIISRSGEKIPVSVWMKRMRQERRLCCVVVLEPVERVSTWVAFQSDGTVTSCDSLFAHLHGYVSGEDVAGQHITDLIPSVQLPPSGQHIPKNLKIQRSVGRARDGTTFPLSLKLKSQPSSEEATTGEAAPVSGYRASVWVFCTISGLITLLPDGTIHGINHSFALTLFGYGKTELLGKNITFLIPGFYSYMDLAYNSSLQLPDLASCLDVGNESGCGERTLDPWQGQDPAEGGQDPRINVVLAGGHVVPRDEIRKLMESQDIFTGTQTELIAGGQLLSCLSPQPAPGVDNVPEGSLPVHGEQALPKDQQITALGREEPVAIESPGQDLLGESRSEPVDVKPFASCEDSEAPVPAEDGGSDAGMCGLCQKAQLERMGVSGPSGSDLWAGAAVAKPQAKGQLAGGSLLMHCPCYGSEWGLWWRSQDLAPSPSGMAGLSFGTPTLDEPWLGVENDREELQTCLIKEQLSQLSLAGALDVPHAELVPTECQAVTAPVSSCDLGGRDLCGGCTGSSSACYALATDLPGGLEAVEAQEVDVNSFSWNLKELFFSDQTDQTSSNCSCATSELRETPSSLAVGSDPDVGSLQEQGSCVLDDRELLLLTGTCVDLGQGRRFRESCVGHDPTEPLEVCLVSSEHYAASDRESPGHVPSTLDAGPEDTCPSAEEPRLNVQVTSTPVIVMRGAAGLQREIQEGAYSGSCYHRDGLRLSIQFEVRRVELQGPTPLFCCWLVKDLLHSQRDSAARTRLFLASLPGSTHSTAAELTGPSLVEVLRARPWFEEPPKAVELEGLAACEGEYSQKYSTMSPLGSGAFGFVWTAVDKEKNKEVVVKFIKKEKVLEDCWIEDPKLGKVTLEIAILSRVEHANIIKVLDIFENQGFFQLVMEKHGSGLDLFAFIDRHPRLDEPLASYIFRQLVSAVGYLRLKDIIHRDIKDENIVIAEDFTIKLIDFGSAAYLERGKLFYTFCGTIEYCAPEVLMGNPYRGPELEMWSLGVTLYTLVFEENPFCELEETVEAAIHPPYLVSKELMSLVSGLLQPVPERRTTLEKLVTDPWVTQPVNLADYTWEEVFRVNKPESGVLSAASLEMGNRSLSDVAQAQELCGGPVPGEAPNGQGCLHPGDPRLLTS
# UniProt O75116: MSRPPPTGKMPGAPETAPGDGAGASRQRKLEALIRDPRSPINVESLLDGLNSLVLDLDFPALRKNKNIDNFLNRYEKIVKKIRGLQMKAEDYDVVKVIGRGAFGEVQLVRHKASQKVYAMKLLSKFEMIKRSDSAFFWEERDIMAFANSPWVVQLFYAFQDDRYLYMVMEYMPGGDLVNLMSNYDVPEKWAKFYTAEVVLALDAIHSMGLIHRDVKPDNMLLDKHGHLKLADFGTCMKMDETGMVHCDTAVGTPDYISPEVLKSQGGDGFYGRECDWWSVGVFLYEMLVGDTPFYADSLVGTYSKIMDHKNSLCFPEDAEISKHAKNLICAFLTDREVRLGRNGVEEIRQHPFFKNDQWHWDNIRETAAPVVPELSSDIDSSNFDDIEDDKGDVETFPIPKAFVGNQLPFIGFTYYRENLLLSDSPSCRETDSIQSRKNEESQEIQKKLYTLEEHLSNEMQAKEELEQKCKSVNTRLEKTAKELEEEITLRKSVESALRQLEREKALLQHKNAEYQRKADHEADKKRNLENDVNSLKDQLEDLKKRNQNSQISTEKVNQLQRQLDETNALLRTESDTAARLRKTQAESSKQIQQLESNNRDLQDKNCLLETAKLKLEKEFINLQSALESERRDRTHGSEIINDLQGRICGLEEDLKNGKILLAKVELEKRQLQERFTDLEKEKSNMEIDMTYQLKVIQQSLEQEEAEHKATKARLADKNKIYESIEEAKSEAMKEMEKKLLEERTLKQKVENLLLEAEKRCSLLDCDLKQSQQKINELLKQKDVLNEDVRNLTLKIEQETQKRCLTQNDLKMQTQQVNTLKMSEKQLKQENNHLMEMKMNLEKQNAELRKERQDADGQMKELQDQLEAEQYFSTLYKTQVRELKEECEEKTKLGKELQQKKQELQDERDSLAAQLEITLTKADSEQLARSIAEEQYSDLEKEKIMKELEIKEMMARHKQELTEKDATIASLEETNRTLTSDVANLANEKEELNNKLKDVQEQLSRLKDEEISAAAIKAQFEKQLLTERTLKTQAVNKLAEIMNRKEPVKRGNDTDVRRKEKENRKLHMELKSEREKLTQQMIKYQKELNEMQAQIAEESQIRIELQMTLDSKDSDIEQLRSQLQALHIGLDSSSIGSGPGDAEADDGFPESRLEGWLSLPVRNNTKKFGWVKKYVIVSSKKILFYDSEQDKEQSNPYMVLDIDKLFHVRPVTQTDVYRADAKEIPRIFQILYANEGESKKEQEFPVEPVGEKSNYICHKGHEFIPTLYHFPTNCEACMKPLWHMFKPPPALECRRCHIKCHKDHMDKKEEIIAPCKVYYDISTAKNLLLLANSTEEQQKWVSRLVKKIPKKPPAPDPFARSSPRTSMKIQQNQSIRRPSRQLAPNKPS
# UniProt Q15208: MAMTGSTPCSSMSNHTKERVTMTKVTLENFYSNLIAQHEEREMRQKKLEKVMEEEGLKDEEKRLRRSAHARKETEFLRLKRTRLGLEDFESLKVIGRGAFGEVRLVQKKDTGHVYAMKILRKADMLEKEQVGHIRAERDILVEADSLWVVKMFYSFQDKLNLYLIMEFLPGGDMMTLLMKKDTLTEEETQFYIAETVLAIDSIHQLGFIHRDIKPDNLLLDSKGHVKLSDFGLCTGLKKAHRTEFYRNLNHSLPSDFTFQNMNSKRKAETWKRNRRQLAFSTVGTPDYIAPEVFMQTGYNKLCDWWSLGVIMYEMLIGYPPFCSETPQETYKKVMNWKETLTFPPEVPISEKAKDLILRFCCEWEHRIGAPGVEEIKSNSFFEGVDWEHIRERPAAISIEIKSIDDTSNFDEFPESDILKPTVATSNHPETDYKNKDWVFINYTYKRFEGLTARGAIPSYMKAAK
# UniProt Q86UE8, whole entry: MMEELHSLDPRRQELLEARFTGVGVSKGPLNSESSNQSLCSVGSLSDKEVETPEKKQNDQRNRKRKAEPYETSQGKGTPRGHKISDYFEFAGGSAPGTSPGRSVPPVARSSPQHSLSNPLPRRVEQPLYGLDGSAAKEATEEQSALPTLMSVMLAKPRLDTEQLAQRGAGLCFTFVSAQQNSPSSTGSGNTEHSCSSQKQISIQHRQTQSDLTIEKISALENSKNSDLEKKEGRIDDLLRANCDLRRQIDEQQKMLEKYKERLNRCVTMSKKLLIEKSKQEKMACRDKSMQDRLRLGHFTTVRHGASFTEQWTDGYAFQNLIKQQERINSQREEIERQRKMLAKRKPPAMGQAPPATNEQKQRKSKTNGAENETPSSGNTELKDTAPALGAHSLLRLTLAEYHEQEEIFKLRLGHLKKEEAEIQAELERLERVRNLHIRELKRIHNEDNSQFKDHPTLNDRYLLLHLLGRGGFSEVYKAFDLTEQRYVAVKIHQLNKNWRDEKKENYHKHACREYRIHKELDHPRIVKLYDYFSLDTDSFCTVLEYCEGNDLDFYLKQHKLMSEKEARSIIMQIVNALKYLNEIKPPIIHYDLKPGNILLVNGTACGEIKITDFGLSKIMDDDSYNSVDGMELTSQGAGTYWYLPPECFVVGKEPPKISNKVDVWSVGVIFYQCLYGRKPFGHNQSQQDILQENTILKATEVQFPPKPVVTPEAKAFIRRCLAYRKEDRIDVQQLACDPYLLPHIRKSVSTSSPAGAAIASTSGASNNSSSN
# UniProt Q16620, whole entry: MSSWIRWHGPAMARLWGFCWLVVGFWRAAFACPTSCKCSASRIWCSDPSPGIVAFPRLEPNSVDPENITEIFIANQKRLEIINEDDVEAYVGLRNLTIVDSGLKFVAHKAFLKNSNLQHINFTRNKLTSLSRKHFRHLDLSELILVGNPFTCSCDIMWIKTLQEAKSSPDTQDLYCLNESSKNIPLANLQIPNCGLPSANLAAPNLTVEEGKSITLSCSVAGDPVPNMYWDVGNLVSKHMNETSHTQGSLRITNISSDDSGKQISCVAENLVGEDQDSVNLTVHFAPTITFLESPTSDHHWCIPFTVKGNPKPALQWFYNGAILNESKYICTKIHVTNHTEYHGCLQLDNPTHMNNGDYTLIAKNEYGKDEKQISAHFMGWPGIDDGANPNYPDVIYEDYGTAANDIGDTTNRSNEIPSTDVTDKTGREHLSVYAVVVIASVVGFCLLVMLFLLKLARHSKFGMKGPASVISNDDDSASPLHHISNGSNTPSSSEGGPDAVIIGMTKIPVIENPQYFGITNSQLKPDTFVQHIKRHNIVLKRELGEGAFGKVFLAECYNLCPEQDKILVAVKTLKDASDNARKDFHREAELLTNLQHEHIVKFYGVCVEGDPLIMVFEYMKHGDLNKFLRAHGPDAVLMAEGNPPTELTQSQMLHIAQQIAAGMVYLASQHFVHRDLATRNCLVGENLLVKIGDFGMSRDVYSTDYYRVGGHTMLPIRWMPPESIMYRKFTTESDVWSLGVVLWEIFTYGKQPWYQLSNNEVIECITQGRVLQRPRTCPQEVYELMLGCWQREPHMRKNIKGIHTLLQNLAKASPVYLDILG
# How the values were obtained:
# Experiment in all cases: biochemical
# Conditions in all cases: read-out: % remaining activity
# ACVR1B = ACVR1B (Homo sapiens, UniProt P36896)
# AURKA = AURKA (Homo sapiens, UniProt O14965)
# AURKC = AURKC (Homo sapiens, UniProt Q9UQB9)
# BMPR2 = BMPR2 (Homo sapiens, UniProt Q13873)
# CAMK2b = CAMK2b (Homo sapiens, UniProt Q13554)
# CAMK2g = CAMK2g (Homo sapiens, UniProt Q13555)
# CAMK4 = CAMK4 (Homo sapiens, UniProt Q16566)
# CDK1/cyclin E = CDK1/cyclin E (Homo sapiens, UniProt P06493)
# CDK5/p25 = CDK5/p25 (Homo sapiens, UniProt Q00535)
# CDK5/p35 = CDK5/p35 (Homo sapiens, UniProt Q00535)
# CK2a = target: T1, CK2a (Homo sapiens, UniProt P68400)
# T1 construct: gene CSNK2A1
# ERK5 = target: T2, ERK5 (Homo sapiens, UniProt Q13164)
# T2 construct: gene MAPK7
# GSK3b = GSK3b (Homo sapiens, UniProt P49841)
# IKKb = target: T3, IKKb (Homo sapiens, UniProt O14920)
# T3 construct: gene IKBKB
# ITK = ITK (Homo sapiens, UniProt Q08881)
# LIMK1 = LIMK1 (Homo sapiens, UniProt P53667)
# LRRK2 = LRRK2 (Homo sapiens, UniProt Q5S007)
# LYN = LYN (Homo sapiens, UniProt P07948)
# MAPKAPK2 = MAPKAPK2 (Homo sapiens, UniProt P49137)
# MARK3 = MARK3 (Homo sapiens, UniProt P27448)
# MEK1 = target: T4, MEK1 (Homo sapiens, UniProt Q02750)
# T4 construct: gene MAP2K1
# MEKK1 = target: T5, MEKK1 (Homo sapiens, UniProt Q13233)
# T5 construct: gene MAP3K1
# MLK1 = target: T6, MLK1 (Homo sapiens, UniProt P80192)
# T6 construct: gene MAP3K9
# PASK = PASK (Homo sapiens, UniProt Q96RG2)
# PKG1b = target: T7, PKG1b (Homo sapiens, UniProt Q13976)
# T7 construct: gene PRKG1
# ROCK2 = ROCK2 (Homo sapiens, UniProt O75116)
# SIK3 = SIK3 (Homo sapiens, UniProt Q9Y2K2)
# STK38 = STK38 (Homo sapiens, UniProt Q15208)
# TEC = TEC (Homo sapiens, UniProt P42680)
# TLK1 = TLK1 (Homo sapiens, UniProt Q9UKI8)
# TLK2 = TLK2 (Homo sapiens, UniProt Q86UE8)
# TRKB = target: T8, TRKB (Homo sapiens, UniProt Q16620)
# T8 construct: gene NTRK2
# TYRO3 = TYRO3 (Homo sapiens, UniProt Q06418)
# VRK2 = VRK2 (Homo sapiens, UniProt Q86Y07)
# WNK1 = WNK1 (Homo sapiens, UniProt Q9H4A3)
# p38-gamma = target: T9, p38-gamma (Homo sapiens, UniProt P53778)
# T9 construct: gene MAPK12
smiles,measurement,setting,value
COc1cc(-c2nn(CCN3CCC(N(C)C)CC3)c3ncnc(N)c23)ccc1NC(=O)OC(C)(C)C [eCF506],remaining activity at 1 µM,ACVR1B,90.9%
same,remaining activity at 1 µM,AURKA,102%
same,remaining activity at 1 µM,AURKC,102%
same,remaining activity at 1 µM,BMPR2,89.6%
same,remaining activity at 1 µM,CAMK2b,104%
same,remaining activity at 1 µM,CAMK2g,102%
same,remaining activity at 1 µM,CAMK4,92.7%
same,remaining activity at 1 µM,CDK1/cyclin E,106%
same,remaining activity at 1 µM,CDK5/p25,98.9%
same,remaining activity at 1 µM,CDK5/p35,102%
same,remaining activity at 1 µM,CK2a,92.8%
same,remaining activity at 1 µM,ERK5,98.4%
same,remaining activity at 1 µM,GSK3b,94.6%
same,remaining activity at 1 µM,IKKb,109%
same,remaining activity at 1 µM,ITK,98.2%
same,remaining activity at 1 µM,LIMK1,79.8%
same,remaining activity at 1 µM,LRRK2,96.6%
same,remaining activity at 1 µM,LYN,1.3%
same,remaining activity at 1 µM,MAPKAPK2,97%
same,remaining activity at 1 µM,MARK3,101%
same,remaining activity at 1 µM,MEK1,91.1%
same,remaining activity at 1 µM,MEKK1,100%
same,remaining activity at 1 µM,MLK1,95.5%
same,remaining activity at 1 µM,PASK,111%
same,remaining activity at 1 µM,PKG1b,94.6%
same,remaining activity at 1 µM,ROCK2,92.8%
same,remaining activity at 1 µM,SIK3,104%
same,remaining activity at 1 µM,STK38,176%
same,remaining activity at 1 µM,TEC,43.9%
same,remaining activity at 1 µM,TLK1,97.3%
same,remaining activity at 1 µM,TLK2,100%
same,remaining activity at 1 µM,TRKB,95.9%
same,remaining activity at 1 µM,TYRO3,110%
same,remaining activity at 1 µM,VRK2,93.6%
same,remaining activity at 1 µM,WNK1,99.2%
same,remaining activity at 1 µM,p38-gamma,90.9%
